Data as given in patent publication US20210040485A1, “Elimination or Neutralization of Endogenous High Molecular Weight FGF-2 Increases Cardiac Resistance to Doxorubicin-Induced Damage” (University of Manitoba, priority 2018, published 2021).

Tests used:
[1] = test system: FGF2(WT), FGF2(−), FGF2(Hi), FGF2(Lo) mice; assay: In vivo model for acute Doxorubicin effects: echocardiography (FS, EF, LVEDD, LVESD, PWT, HR) and heart weight/body weight; conditions: day 10 post-Dox, mean ± SD
[2] = test system: neonatal rat ventricular cardiomyocytes co-cultured with MEFs; assay: Mitochondrial permeability transition pore (Calcein-AM/Cobalt chloride) assay in MEF-cardiomyocyte co-cultures; format: cell-based; conditions: co-cultures with FGF2(Lo)-MEFs compared to co-cultures with the other MEFs
Experimental: MEF-Cardiomyocyte co-cultures. Cardiomyocytes were plated at a density of 5×10^4 cells/cm^2 on collagen (Corning, #354236) coated glass coverslips in the presence of 20% fetal bovine serum (FBS) in Hams F-10 culture medium; 24 hours later the media was changed and MEFS from FGF2(WT), FGF2(−), FGF2(Hi), and FGF2(Lo) strains (2×10^4/cm^2) were added to the cultures in low-serum medium (0.5% FBS, 1% insulin, 1% transferrin/selenium, and 1% ascorbic acid) in Dulbecco's modified Eagle's medium (DMEM). After 48 hours, co-cultures were incubated with low serum medium containing 0.5 μM of Dox or saline. Conditioned media were collected 24 h later, and stored at −80° C. Cells attached on coverslips were used for the Calcein-AM/Cobalt chloride mPTP assay.
Primary mouse embryonic fibroblasts (MEFs)-r-cardiomyocyte co-cultures. MEFs were isolated as described (30). […]
Mitochondrial permeability transition pore (mPTP) assay. […] Image J software was used to measure individual cell fluorescence intensity of Calcein-AM (green). […]

[3] = test system: FGF2(WT), FGF2(−), FGF2(Hi), FGF2(Lo) mice; conditions: mouse, in vivo
[4] = test system: FGF2(WT), FGF2(−), FGF2(Hi), FGF2(Lo) mice; assay: In vivo model for acute Doxorubicin effects: mortality and body weight; design: species or system mouse; conditions: male FGF2(−) mice, 5-6 days post Dox
From the text: In vivo model for acute Doxorubicin effects.
In vivo model for acute cardiotoxic effects. […] Hearts were then collected for biochemical analyses.

Substance: Doxorubicin
- Heart weight/body weight ([1]; FGF2(Lo) female mice): 0.44 ± 0.03 × 10^−2
- Heart weight/body weight ([1]; FGF2(Lo) male mice): 0.43 ± 0.04 × 10^−2
- Heart weight/body weight ([1]; FGF2(WT) female mice): 0.43 ± 0.02 × 10^−2
- Heart weight/body weight ([1]; FGF2(WT) male mice): 0.44 ± 0.06 × 10^−2
- relative intensity of calcein fluorescence post-Dox [2]: significantly higher
- decrease in ejection fraction (EF), maximum [3]: 10%
- effect on ejection fraction (EF) [3]: did not show any decrease
- severity of FS decrease relative to FGF2(WT) group [3]: > 2 fold
- mortality [4]: 40-70%
